What was measured:
[1] = Phase I Part 1: plasma pharmacokinetics after single oral dose; assay type: in vivo, human; details: for CL/F: geometric mean; for Tmax: median
Method: (§1) PK analysis was performed in all subjects who received at least one dose of evobrutinib and had at least one primary PK parameter evaluable by non-compartmental methods using PHOENIX® WINNONLIN® Version 6.3 (Certara LP, Princeton, N.J., US). Serial blood samples were obtained on Day 1 pre-dose and 0.25, 0.5, 1.0, 1.5, 2, 2.5, 3, 4, 5, 6, 8, 12, 16, 24 (Day 2), 36 (Day 2), and 48 h (Day 3) post-dose during Part 1, and used to prepare plasma samples for evobrutinib PK analysis. A similar sampling schedule was undertaken in Part 2 on Days 1 and 14, with additional trough samples obtained on Days 5, 8, 11, as well at Day 17 and 18.
(§2) PK samples were analyzed by Quintiles Bioanalytical and ADME Laboratory (Ithaca, N.Y., USA) using a validated bioanalytical liquid chromatographic assay with tandem mass spectrometric detection (UPLC-MS/MS) to determine evobrutinib concentration; the LLOQ of the assay was 0.1 ng/mL. Plasma evobrutinib concentrations and PK parameters were summarized descriptively. To test dose proportionality, PK parameters were analyzed graphically as AUC/dose and Cmax/dose and via a power model (PK parameter=α*dose^β) approach with log-transformed PK parameters as the dependent variable and log-transformed dose as the independent variable. Accumulation of evobrutinib and time dependency of PK parameters were evaluated for each dose level during Part 2 using a linear mixed-effect analysis of variance for log-transformed PK parameters with a fixed-repeated effect for day and random effect for subject.

[2] = Phase I Part 2: plasma pharmacokinetics Day 1 and Day 14 of once daily dosing; assay type: in vivo, human; details: for CL/F: geometric mean
Method: as §1, §2

[3] = tested on: human patients suffering from relapsing multiple sclerosis (RMS); assay: Phase II RMS study: brain MRI (Gd+ T1 lesions, T2 lesions); assay type: in vivo
Method: (§3) This study was designed to examine the effects of evobrutinib in human patients suffering from relapsing multiple sclerosis (RMS) in a phase II clinical study. The study was conducted as a randomized, double-blind, placebo-controlled study in subjects with RMS, with a parallel, open-label active control group (Tecfidera) involving 5 treatment groups with 3 doses of evobrutinib, placebo, and active control (Tecfidera). The assessing Investigator and central MRI reader were treatment blinded.
(§4) The study consisted of 4 major periods: (i) a Screening period of 4 weeks, (ii) active treatment with 3 dose groups of evobrutinib, active control (Tecfidera), or placebo for 24 weeks, (iii) a 24-week extension on active treatment with evobrutinib or active control (Tecfidera) for 24 weeks, where subjects on placebo were switched to evobrutinib, and (iv) an optional OLE Period. At the end of the 48-week main study, subjects were in 1 of 4 treatment groups (evobrutinib 25 mg daily, 75 mg once daily, or 75 mg twice daily or Tecfidera). The study protocol specified that (i) all subjects who choose to enter the OLE were to be switched to active treatment with evobrutinib at a dose of 75 mg once daily or to the eventual Phase III dose when decided, (ii) subjects transitioning from Tecfidera were to complete a washout period of at least 4 weeks prior to initiating evobrutinib treatment in the OLE Period, (iii) following completion or early termination of treatment, subjects were to return after 4 weeks for safety evaluation, and (iv) placebo subjects were to be switched to the 25 mg evobrutinib once daily dose after Week 24. Patients switching from the reference arm (dimethyl fumarate) to evobrutinib at week 48 were to undergo a 4-8 week washout.
(§5) The protocol specified that subjects received 25 mg once daily, 75 mg once daily, or 75 mg twice daily evobrutinib or placebo administered as tablets for 168 days. To maintain blinding for placebo and evobrutinib, subjects self-administered study medication at a schedule similar to the 75 mg evobrutinib twice daily dosing schedule (i.e., 3 tablets twice daily). At the end of the 24-week treatment period, the placebo group was to be switched to evobrutinib at a dose of 25 mg once daily; however, flexibility was maintained to allow adjusting this dose based on data from the primary analysis.
The protocol specified that subjects self-administered the IMP at a set time each day (every 12 hours ±2 hours). Subjects were to take their daily dose more than 1 hour prior to a meal or snack and more than 2 hours after a meal or snack. Clear fluids were allowed at any time. On trial visit days, the IMP was to be administered during the trial visit after the scheduled trial visit procedures (other than post-treatment PK/PD sampling) are completed.
Eligible subjects were randomized 1:1:1:1:1 to treatment with placebo, low-dose evobrutinib (25 mg once daily), mid-dose evobrutinib (75 mg once daily), high-dose evobrutinib (75 mg twice daily), or Tecfidera (administered twice daily at a final dose of 240 mg), through a central randomization process by an IWRS prior to dosing on Day 1. Stratification occurred by region (USA or Western Europe, Eastern Europe and BTKO capable, Eastern Europe and not BTKO capable, and RoW). For the first 7 days, Tecfidera was administered orally at 120 mg twice daily. Following this and for the duration of treatment, Tecfidera was administered orally at 240 mg twice daily. All subjects who choose to enter the OLE Period were to receive open-label evobrutinib 75 mg once daily or the eventual Phase III dose.
The protocol specified that MRI scans were to be performed at Screening, at 4-week intervals from Week 12 to 24, and at the End of Treatment Visit at Week 48 (including for subjects receiving Tecfidera who choose to enter the OLE Period). […]

[4] = tested on: human patients suffering from relapsing multiple sclerosis (RMS); assay: Phase II RMS study: qualified relapse assessment (ARR, relapse-free status); assay type: in vivo; details: for Qualified relapse rate ratio based on NB model (vs placebo): 24 weeks; for Odds ratio of being relapse-free vs placebo, based on logistic model: Week 24
Method: as §3, §4, §5
Subjects were assessed for MS relapse at visits beginning at Week 4. Relapse was also assessed at any Unscheduled Visit for Neurological Worsening and Relapse Assessment. For subjects in the OLE Period, MS relapse was assessed at all visits. A qualifying relapse was defined as new, worsening or recurrent neurological symptoms attributed to MS that last for at least 24 hours without fever or infection, or adverse reaction to prescribed medication, preceded by a stable or improving neurological status of at least 30 days. The relapse must have been accompanied by new clinical signs (i.e., changes in the neurological examination or an increase in EDSS score).
The protocol specified that all cases of potential relapse were to be objectively confirmed by the Investigator regardless of whether they were identified during a scheduled or unscheduled visit. Any assessments needed to confirm the relapse were to be performed, and details of the relapse were to be documented within the relevant section(s) of the eCRF.
Key secondary endpoints to evaluate the efficacy and safety of evobrutinib compared to placebo were: • Annualized relapse rate (ARR), based on protocol-defined qualified relapses, at Week 24 • Qualified relapse-free status at Week 24 • Change from Baseline in EDSS at Week 24 • Safety as assessed by the nature, severity, and occurrence of AEs; vital signs; ECGs; absolute concentrations and change from Baseline in Ig levels; absolute numbers and change from Baseline in B cells; and clinical laboratory safety parameters (duration of placebo treatment group limited to 24 weeks). Additional Secondary Endpoints […]

## C=CC(=O)N1CCC(CNc2ncnc(N)c2-c2ccc(Oc3ccccc3)cc2)CC1 [Evobrutinib, 1-(4-(((6-amino-5-(4-phenoxyphenyl)pyrimidin-4-yl)amino)methyl)piperidin-1-yl)prop-2-en-1-one]
[1]; humans
  Time to peak concentrations: ~0.5 h
[1]; single dose 25 mg
  CL/F: 4,000 mL/min
  Tmax: 48 min
[1]; single dose 50 mg
  CL/F: 2,550 mL/min
[1]; single dose 100 mg
  CL/F: 3,840 mL/min
[1]; single dose 200 mg
  CL/F: 3,900 mL/min
[1]; single dose 350 mg
  CL/F: 3,050 mL/min
  Tmax: 60 min
[1]; single dose 500 mg
  CL/F: 2,590 mL/min
[2]; multiple-dose study Day 1, 25 mg
  CL/F: 3,390 mL/min
[2]; multiple-dose study Day 1, 25 mg, median
  Tmax: 30 min
[2]; multiple-dose study Day 1, 200 mg
  CL/F: 3,000 mL/min
[3]; 25 mg QD
  Gd+ T1 Lesion Rate Ratio vs placebo (negative binomial model): 1.54
  New or enlarging T2 Lesion Rate Ratio vs placebo (negative binomial model): 1.32
[3]; 75 mg BID
  Gd+ T1 Lesion Rate Ratio vs placebo (negative binomial model): 0.48
  New or enlarging T2 Lesion Rate Ratio vs placebo (negative binomial model): 0.44
[3]; 75 mg QD
  Gd+ T1 Lesion Rate Ratio vs placebo (negative binomial model): 0.38
  New or enlarging T2 Lesion Rate Ratio vs placebo (negative binomial model): 0.53
[4]; 25 mg QD
  Qualified relapse rate ratio based on NB model (vs placebo): 1.75
  Odds ratio of being relapse-free vs placebo, based on logistic model: 0.76
[4]; 75 mg BID
  Qualified relapse rate ratio based on NB model (vs placebo): 0.26
  Odds ratio of being relapse-free vs placebo, based on logistic model: 1.83
[4]; 75 mg QD
  Qualified relapse rate ratio based on NB model (vs placebo): 0.36
  Odds ratio of being relapse-free vs placebo, based on logistic model: 2.43

— US12251382B2, “Substituted amino-pyrimidine compound for use in a method for treatment and prevention of multiple sclerosis” (Merck Patent GmbH, priority 2018, dated 2025)
